Experimental data published in US9920012B2, “Indazole guanidine F1F0-ATPase inhibitors and therapeutic uses thereof” (Lycera Corporation, priority 2012, dated 2018).
pEC50, pIC50: −log10 of the molar value.

Columns and labels:
F1F0-ATPase = F1F0-ATPase (Bos taurus, UniProt P13621); test: Inhibition of F1F0-ATPase activity in synthesizing ATP; conditions: read-out: ATP Syn IC50; inhibition of ATP synthesis; detection limit IC50=16 μM
Experimental: (§1) Exemplary compounds described in above Examples were tested for activity against F1F0-ATPase by measuring the ability of the compounds to inhibit ATP synthesis. In addition, the compounds were assessed for cytotoxicity in Ramos cells. Inhibition of F1F0-ATPase activity in synthesizing ATP and cytotoxicity in Ramos cells were measured according to the procedures described in K. M. Johnson et al. Chemistry & Biology 2005, 12, 485-496. […] In the column titled ATP Syn IC50 in Table 4, the symbol “+” refers to an IC50>16 μm, “++” refers to an IC50 from 5 to 16 μm, and “+++” refers to an IC50 less than 5 μm. In the column titled Ramos Cell EC50 in Table 4, the symbol “+” refers to an EC50>16 μm, “++” refers to an EC50 from 5 to 16 μm, and “+++” refers to an EC50 less than 5 μm. The detection limit of the assay measuring inhibition of F1F0-ATPase activity was IC50=16 μM. The detection limit of the assay measuring cytotoxicity in Ramos cells was EC50=16 μM.

Ramos cells = test: Cytotoxicity in Ramos cells; conditions: read-out: Ramos Cell EC50, detection limit EC50=16 μM
Experimental: as §1

In the case of `CC(C)(O)CNC(=NC(=O)c1ccc(F)c(F)c1)Nc1n[nH]c2cc(C(F)(F)F)ccc12`, the pIC50 (F1F0-ATPase) was < 4.80 and the pEC50 (Ramos cells) was < 4.80.
